# Source: PubChem BioAssay AID1347041 (National Center for Advancing Translational Sciences (NCATS), 2019)
# This is a selection; strong and weak results do not stand in their true shares. Activity calls are given as the source filed them. No stated cut-off is given here; in the data, active means activity change below about -30%; inconclusive means mostly about -25% to -30%; inactive means weaker than that.
# Target: L-lactate dehydrogenase A chain (Homo sapiens) (UniProt P00338)
# Test: qHTS assay for inhibitors of human lactate dehydrogenase;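 further: values are at about 110 or 230 µM; plate controls were DMSO wells for no effect and wells without enzyme for full effect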
# Details: purified LDHA, NADH/diaphorase-resazurin fluorescence; stronger effect = lower value
# From the text: LDH is a key glycolytic enzyme that catalyzes the final step in the glycolytic pathway, reducing pyruvate to lactate and regenerating NAD+ equivalents necessary for continued glycolysis. LDHA has been linked to the carcinogenesis and malignancy in numerous forms of cancers and many other diseases. Consequently, both pharma and academia have invested in significant research efforts to identify small molecule therapeutics. Such attempts have been stalled or abandoned due to limited success in discovering potent and drug-like inhibitors that can be utilized to validate LDHA in vivo as a drug target, a necessary step toward advancing such a molecule towards the clinic Towards this goal we designed and performed a quantitative high-throughput screening (qHTS) campaign to discover novel compounds that are potent inhibitors of LDHA enzyme activity and cancer cell line growth.
# The assay was optimized to 1536-well plates. Briefly, 3 µL of human lactate dehydrogenase 5 (#A38558H, Meridian Life Science, Inc., Memphis, TN) in LDH assay buffer (200 mM Tris HCl pH 7.4, 100 microM EDTA and 0.01% Tween-20) was added to a black solid bottom 1536-well assay plate (Greiner Bio-One) using a BioRAPTR FRD dispenser (Beckman Coulter, Brea, CA). A 1536-well pintool dispenser outfitted with 20 nL pins (Wako Automation, San Diego, CA) was used to transfer 23 nL of DMSO-solubilized compound (both library and vehicle controls) to each 1536-well assay plate. Following compound transfer, 1 µL of substrate solution containing NADH and sodium pyruvate (Sigma-Aldrich, St. Louis, MO) in LDH assay buffer was dispensed via BioRAPTR FRD to initiate the reaction. Final concentrations in the 4 microL reaction volume were 2 nM LDHA enzyme, 0.06 mM NADH and 0.2 mM sodium pyruvate. Following a 5 minute incubation period at room temperature, 1 µL of detection reagent (C. kluyveri diaphorase (Sigma-Aldrich) and resazurin sodium salt (Sigma-Aldrich) in LDH assay buffer) was added to a total volume of 5 µL. Final concentrations of detection reagents were 0.133 mg/mL diaphorase and 37 µM resazurin. Plates were immediately transferred to a ViewLux microplate imager (PerkinElmer, Waltham, MA), and any resulting resorufin fluorescence was measured (ex540, em590 nm) at 0 and 20 minutes. Fluorescence was normalized using enzyme-free and DMSO-treated control wells on each plate.
row,Structure (SMILES),activity change
1,CCOC(=O)Nc1cccc([As](=O)(O)O)c1,inactive: -7.11%
2,O=[N+]([O-])c1ccc(Nc2ccc(Oc3ccc([N+](=O)[O-])cc3[N+](=O)[O-])cc2)c([N+](=O)[O-])c1,inactive: -14.2%
3,O=P(Nc1ccccn1)(c1cccc2ccccc12)c1cccc2ccccc12,inactive: -6.17%
4,Cc1cc(SC(NC=O)C(Cl)(Cl)Cl)ncn1 (configuration not stated),inactive: -0.838%
5,CC1CCNP(=O)(N(CCCl)CCCl)O1 (configuration not stated),inactive: -4.58%
6,CCOC(=O)Nc1ccc([As](=O)(O)O)c(O)c1,inactive: 2.38%
7,O=C(O)C(O)c1ccc(N(CCCl)CCCl)cc1 (configuration not stated),inactive: -1.19%
8,CCCCOc1ccc(C(=O)NCC2(N3CCCCC3)CCCCC2)cc1OC,inactive: 0.467%
9,O=C(/C=C/c1ccccc1)NC(Sc1ccc(Cl)cc1)C(Cl)(Cl)Cl (configuration not stated),inactive: -0.334%
10,Cc1cc(SC(NC(=O)c2ccccc2)C(Cl)(Cl)Cl)nc(C(C)C)n1 (configuration not stated),inactive: -0.965%
11,COP(=O)(OC)N1CC1c1ccccc1 (configuration not stated),inactive: -4.25%
12,CCOC(=O)c1ccc(NC(=O)C(C)(CCl)SC)cc1 (configuration not stated),inactive: -6.66%
13,O=C(OC1CN2CCC1CC2)c1cccc([N+](=O)[O-])c1 (configuration not stated),inactive: -10.7%
14,CSc1ccc(Nc2c([N+](=O)[O-])cc([N+](=O)[O-])cc2[N+](=O)[O-])cc1,inactive: 3.48%
15,Clc1cccc(NC2=NCC(CBr)S2)c1 (configuration not stated),inactive: 2.43%
16,CCOP(=O)(Nc1cccc2cccnc12)OCC,inactive: 11.3%
17,CCC(C)N(CC(C)C)C(=S)SC(NC(C)=O)C(Cl)(Cl)Cl (configuration not stated),inactive: 0.238%
18,COP1(=S)c2c(C)nn(CCC#N)c2N=C(c2ccc(F)cc2)N1C (configuration not stated),inactive: -17.1%
19,COC(=O)C1(C)COP(=O)(N2CCCC2)OC1 (configuration not stated),inactive: -0.294%
20,O=C(COc1ccccc1)OC1CN2CCC1CC2 (configuration not stated),inactive: -4.86%
21,O=C(Nc1ccncc1[N+](=O)[O-])c1ccc([N+](=O)[O-])cc1[N+](=O)[O-],inactive: 0.762%
22,Cc1cccc(C(=O)NC(Sc2ccccc2)C(Cl)(Cl)Cl)c1 (configuration not stated),inactive: 2%
23,O=C(O)C(=O)c1ccc(N(CCCl)CCCl)cc1,inactive: -2.39%
24,COc1ccc(N/C(=N/P(=O)(N2CCOCC2)N2CCOCC2)N2CCOCC2)cc1,inactive: -1.88%
25,O=[N+]([O-])c1cc(Oc2ccc([N+](=O)[O-])cc2C(F)(F)F)cc([N+](=O)[O-])c1,inactive: -2.24%
26,O=C(OC1CN2CCC1CC2)C12CC3CC(CC(C3)C1)C2 (configuration not stated),inactive: -5.85%
27,Cc1cc(=O)[nH]c(N[N+](=O)[O-])n1,inactive: -3.6%
